# Earlier results, collected in US20160168446A1, “METHOD FOR PRODUCING MINERAL OIL FROM AN UNDERGROUND MINERAL OIL DEPOSIT USING A COMPOSITION (Z) COMPRISING A GLYCEROL-BORIC ACID COMPLEX” (priority 2013, published 2016).
# Settings: complex (I) and salts thereof
substance,measurement,value
glycerol-boric acid complex [glycerol-boric acid complex (I)],water solubility compared with boric acid or borax,much better water solubility
